Here are results for one compound from ChEMBL document CHEMBL4342491, “Development of a Versatile and Sensitive Direct Ligand Binding Assay for Human NR5A Nuclear Receptors” (ACS Med Chem Lett, 2020).

Chains of the proteins cited; added tags and fusions are not shown.
UniProt Q13285, whole entry: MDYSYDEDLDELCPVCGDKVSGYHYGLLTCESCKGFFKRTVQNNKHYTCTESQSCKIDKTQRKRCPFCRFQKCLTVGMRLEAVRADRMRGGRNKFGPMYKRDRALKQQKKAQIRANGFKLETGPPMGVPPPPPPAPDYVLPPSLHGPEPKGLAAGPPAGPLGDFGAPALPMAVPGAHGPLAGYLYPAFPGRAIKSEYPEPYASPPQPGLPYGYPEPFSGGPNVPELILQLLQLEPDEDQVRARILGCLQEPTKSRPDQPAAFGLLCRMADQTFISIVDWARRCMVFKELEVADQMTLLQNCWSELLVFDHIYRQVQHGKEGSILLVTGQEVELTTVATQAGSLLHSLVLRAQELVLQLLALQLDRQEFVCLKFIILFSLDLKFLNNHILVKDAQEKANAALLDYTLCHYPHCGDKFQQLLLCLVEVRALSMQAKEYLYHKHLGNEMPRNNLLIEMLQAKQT

In test [1] the target is T1, Steroidogenic factor 1 (Homo sapiens, UniProt Q13285). Put plainly: Binding affinity to human SF1 LBD (218 to 461 residues) expressed in Escherichia coli BL21 by electrophoretic mobility shift assay. On the technique in general: Mobility shift assays separate free from complexed probe on a gel.
Test [2] deals with T1, Steroidogenic factor 1.

What is called Kd is a measure of binding affinity in units of concentration. By Ki is commonly meant the equilibrium dissociation constant of an inhibitor or competing ligand from its target. Low readings indicate a stronger hold on the target, high ones a looser hold on the target. Take `C=C(c1ccccc1)[C@@]12CC[C@@H](O)[C@@H]1CC(CCCCCC)=C2c1ccccc1`: in test [1], the Kd came out at 1200 nM. Besides, the inhibition constant Ki in test [2] is 3300 nM.
